Data published in patent publication US20230103554A1, “TNFa SIGNALING [sequence] TUMOR-PROMOTING INFLAMMATION THAT CAN BE TARGETED TO THERAPY” (Baylor College of Medicine, priority 2020, published 2023).

Experiments:
Assay type in all cases: cell-based, human
NB cell lines = experiment: Intracellular IκBα in NB cell lines treated with TNFα (PhosFlow); conditions: 12 hours
Protocol: (FIG. 2A) Representative panel of NB cell lines were analyzed for TNFR1 and TNFR2 surface expression by flow cytometry. (FIG. 2B) NB cell lines were treated with recombinant human TNFα (rhTNFα) (10 ng/mL) for 12 hours and intracellular IκBα levels were determined by PhosFlow flow cytometry and normalized to their respective untreated controls (set to 1). (FIG. 2C) NB cell lines were cultured with human monocytes for 24 hours and intracellular flow cytometry intracellular IκBα levels were determined by PhosFlow flow cytometry and normalized to their respective NB only controls (set to 1). Surface staining of CD45 and GD2 were used to differentiate Monocyte (CD45+, GD2−) and NB (CD45−, GD2Low-high) populations. * p<0.05, ** p<0.01;
(FIG. 23A) NB cell lines were co-cultured with monocytes for 24 hours. Intracellular IκBα expression level within CD45-GD2+NB population was determined by PhosFlow flow cytometry and IκBα MFI normalized to NB alone control. Mean normalized IκBα MFI±SD from cultures run in duplicate. […] Intracellular IκBα expression level was determined by PhosFlow flow cytometry and IκBα MFI normalized to NB untreated (PBS) control. […] Intracellular IκBα expression level within CD45-GD2+NB population was determined by PhosFlow flow cytometry and IκBα MFI normalized to NB alone control. […]

SK-N-AS-luc = experiment: rhTNF viability curve by luminescence; conditions: 1-16,000 pg/mL rhTNF, 48 hours
Protocol: (§1) (FIG. 8A) Luciferase expressing CHLA-255-luc and SK-NAS-luc were cultured in 1-16,000 pg/mL rhTNF for 48 hours and viability of the cells was measured by luminescence. Data was normalized to untreated control and graphed as % Viability versus Log10 of TNF concentration.

CHLA-255-luc = experiment: rhTNF viability curve by luminescence; conditions: 1-16,000 pg/mL rhTNF, 48 hours
Protocol: as §1

rhTNFα: recombinant human TNFα
IκBα levels compared to untreated controls (NB cell lines; 5 ng/mL TNFα): drop in IκFα levels
IκBα expression compared to untreated NB cells (NB cell lines; rhTNFα 10 ng/mL): decreasing trend of IκBα expression
viability with increasing rhTNF concentration (SK-N-AS-luc): viability decreased
viability with increasing rhTNF concentration (CHLA-255-luc): remained viable
